Results from US12486265B2, “2-aminopyrimidine compounds and pharmaceutical compositions and uses thereof” (Shanghai Zhimeng Biopharma, Inc., priority 2019, dated 2025).

Biological target: T1, human TLR8 (Homo sapiens, UniProt Q9NR97)
T1 construct: host or cells: HEK-Blue hTLR8 (HEK293-derived)
T1 sequence (Q9NR97 27-1041): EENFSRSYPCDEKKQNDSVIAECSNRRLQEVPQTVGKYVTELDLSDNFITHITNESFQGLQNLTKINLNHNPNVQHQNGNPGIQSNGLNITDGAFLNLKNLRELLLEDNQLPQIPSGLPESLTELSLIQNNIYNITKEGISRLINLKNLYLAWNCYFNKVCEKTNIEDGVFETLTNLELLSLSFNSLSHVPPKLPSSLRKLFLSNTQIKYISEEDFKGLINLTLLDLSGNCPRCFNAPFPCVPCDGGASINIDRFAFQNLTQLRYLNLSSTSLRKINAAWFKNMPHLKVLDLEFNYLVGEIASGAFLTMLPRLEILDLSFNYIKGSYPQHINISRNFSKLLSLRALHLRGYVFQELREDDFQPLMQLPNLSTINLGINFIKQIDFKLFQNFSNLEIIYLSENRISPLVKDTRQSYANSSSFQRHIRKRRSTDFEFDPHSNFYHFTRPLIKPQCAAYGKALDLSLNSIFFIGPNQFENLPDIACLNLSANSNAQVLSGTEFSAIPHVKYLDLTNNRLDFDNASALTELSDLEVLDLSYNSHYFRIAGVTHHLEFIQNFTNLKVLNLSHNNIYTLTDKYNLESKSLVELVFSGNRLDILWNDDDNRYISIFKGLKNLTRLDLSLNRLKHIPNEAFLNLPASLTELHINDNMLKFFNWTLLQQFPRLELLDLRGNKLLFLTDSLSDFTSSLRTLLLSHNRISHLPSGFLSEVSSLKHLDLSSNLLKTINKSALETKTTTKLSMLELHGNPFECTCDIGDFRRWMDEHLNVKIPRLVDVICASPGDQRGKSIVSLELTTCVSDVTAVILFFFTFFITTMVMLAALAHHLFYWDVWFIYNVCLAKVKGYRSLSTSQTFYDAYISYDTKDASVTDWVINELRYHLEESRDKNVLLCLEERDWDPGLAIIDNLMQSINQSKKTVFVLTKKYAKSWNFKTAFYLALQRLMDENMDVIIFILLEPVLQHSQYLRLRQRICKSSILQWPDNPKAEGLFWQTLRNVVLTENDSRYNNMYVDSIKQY
Experiment: hTLR8 receptor binding activity in vitro (HEK-Blue hTLR8 SEAP reporter)
Type: cell-based
Protocol: The ability of the compounds of the present invention to activate TLR7 and TLR8 respectively was evaluated by using receptor binding experiments in vitro.
HEK-Blue™ hTLR7 (article number: hkb-htlr7) and HEK-Blue™ hTLR8 (article number: hkb-htlr8) cells were purchased from InvivoGen company. HEK-Blue™ hTLR7/8 cells can indicate the activation of TLR7/8 by detecting the activation level of NF-κB signaling pathway. HEK-Blue™ hTLR7/8 cells are derived from human embryonic kidney 293 cells, stably expressing human TLR7 or human TLR8, respectively, and can induce expression of secretory alkaline phosphatase (SEAP) to report gene system. The expression of SEAP reporter gene is regulated by IFN-β simplified promoter, which is composed of 5 NF-κB binding sequences and AP-1 binding sequences. Therefore, when TLR7/8 is activated in these two cells, NF-κB and AP-1 will be activated, and SEAP expression and extracellular secretion will be induced. […]
[drawing 45] per well; • (2) HEK-Blue™ hTLR7/8 cells were digested separately, counted, and the cells at 5.0×10^4 cells per well were added to a 96-well cell culture plate containing compounds; (3) The cells added with the compound were placed in a 5% CO2 incubator at 37° C. for 24 hours; • (4) Compound activity detection: took 20 µl/well cell culture supernatant and added it to 96-well plate containing 180 μl QUANTI-BLUE™ reagent. […]

Q: How did the EC50 turn out when `CCCC[C@](C)(CNC(C)=O)Nc1nc(N)nc2cc(C(=O)N(C)C)cnc12` [Compound A] was run?
A: Its EC50 is 52 nM.

Q: What about the “selectivity for TLR8 activation” value (TLR8 versus TLR7, compared with compound X) of the same molecule?
A: Its value is “higher selectivity for TLR8 activation than compound X”.
